Reference: patent publication US20240092926A1 (ONCORESPONSE, published 2024)

The chains behind the UniProt entries cited, without tags or fusion partners. Residues count along the entry.
UniProt Q86VB7, 42-1050 limits assumed: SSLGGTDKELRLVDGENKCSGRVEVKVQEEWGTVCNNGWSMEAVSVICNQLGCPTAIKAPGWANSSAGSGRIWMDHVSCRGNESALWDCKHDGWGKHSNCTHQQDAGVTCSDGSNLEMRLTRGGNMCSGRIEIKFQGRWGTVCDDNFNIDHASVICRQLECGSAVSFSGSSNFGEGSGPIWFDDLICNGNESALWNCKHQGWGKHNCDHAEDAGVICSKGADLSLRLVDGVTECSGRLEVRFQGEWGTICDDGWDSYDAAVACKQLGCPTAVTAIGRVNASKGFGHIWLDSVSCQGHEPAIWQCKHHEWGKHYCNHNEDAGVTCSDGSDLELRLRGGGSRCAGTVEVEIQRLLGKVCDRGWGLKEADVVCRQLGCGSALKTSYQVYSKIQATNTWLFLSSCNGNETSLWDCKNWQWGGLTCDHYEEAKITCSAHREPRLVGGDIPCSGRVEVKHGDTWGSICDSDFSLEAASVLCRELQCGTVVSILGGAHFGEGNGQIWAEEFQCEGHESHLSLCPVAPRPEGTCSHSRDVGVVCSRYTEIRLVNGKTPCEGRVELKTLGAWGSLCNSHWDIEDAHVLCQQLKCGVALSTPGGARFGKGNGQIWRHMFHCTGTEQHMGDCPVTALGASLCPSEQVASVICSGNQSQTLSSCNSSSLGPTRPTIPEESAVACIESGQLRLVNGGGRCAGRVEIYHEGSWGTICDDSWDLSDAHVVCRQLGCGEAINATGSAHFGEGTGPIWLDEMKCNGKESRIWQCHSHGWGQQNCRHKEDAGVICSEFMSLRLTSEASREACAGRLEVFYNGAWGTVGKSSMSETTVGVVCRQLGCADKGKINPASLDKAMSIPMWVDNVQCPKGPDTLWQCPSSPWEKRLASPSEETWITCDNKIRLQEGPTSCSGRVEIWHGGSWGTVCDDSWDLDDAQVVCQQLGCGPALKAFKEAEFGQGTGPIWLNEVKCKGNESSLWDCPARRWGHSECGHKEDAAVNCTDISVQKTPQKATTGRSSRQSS
UniProt Q86VB7, 46-1050 limits assumed: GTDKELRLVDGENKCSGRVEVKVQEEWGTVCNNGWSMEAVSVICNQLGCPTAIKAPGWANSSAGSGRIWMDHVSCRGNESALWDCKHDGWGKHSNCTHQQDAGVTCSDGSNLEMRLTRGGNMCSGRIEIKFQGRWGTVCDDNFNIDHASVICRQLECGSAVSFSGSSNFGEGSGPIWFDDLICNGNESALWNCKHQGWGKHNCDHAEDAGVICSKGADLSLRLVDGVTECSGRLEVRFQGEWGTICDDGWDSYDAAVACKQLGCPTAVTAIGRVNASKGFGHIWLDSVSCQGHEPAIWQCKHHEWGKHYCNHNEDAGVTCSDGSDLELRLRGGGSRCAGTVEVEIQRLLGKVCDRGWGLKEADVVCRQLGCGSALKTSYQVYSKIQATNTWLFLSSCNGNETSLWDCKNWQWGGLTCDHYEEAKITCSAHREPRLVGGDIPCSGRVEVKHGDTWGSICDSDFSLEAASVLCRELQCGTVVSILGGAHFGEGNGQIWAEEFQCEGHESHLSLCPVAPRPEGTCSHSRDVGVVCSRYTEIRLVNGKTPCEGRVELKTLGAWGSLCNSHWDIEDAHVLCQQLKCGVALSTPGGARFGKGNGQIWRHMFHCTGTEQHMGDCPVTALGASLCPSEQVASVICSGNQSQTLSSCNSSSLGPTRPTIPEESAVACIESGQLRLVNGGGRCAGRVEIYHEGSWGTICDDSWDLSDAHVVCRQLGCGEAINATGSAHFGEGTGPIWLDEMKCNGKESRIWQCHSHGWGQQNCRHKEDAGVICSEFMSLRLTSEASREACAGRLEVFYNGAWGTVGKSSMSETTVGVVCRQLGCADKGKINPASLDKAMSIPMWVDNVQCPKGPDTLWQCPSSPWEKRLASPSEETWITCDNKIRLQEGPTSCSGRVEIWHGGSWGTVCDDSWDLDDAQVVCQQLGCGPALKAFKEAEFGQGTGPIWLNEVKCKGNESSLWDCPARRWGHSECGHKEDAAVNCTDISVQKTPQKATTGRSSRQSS

Key:
[1] = molecular target: T1, Biotin-labeled human CD163 (human, UniProt Q86VB7 42-1050, limits assumed, biotin-labeled (sites not given)); test: BLI (Octet RED96), b-huCD163 on SA biosensor, Ab at 100/150/200/250 nM
T1 construct: Biotinylated form of the human CD163 antigen, immobilised on SA biosensors for BLI; also called b-huCD163; Human CD163 Protein (biotinylated)
Procedure: Samples were prepared as follows; Dilute antigen b-huCD163 to 2 pg/mL with PBS buffer; Dilute AB101 parental Ab to a series of concentration (100/150/200/250 nM) with PBST buffer. Results are described in Table 5:
The SA sensors were placed in the PBS buffer for 15 minutes. Different solutions were added to a 96-well plate according to the following orders, with 200 μL per well.

[2] = molecular target: T1, Biotin-labeled human CD163; test: BLI (Octet RED96), b-huCD163 on SA biosensor, one Ab concentration 50.0 nM
[3] = molecular target: T2, His-tagged recombinant human CD163 (R&D Systems, No. 1607-CD-050) (human, UniProt Q86VB7 46-1050, limits assumed); test: ELISA, plate coated with His-tagged recombinant human CD163 at 5 µg/mL, detection with anti-human IgG F(ab')2-HRP, A450; log axis in nM
T2 construct: Bought protein; also called recombinant CD163 protein; huCD163; not shown: His tag
Procedure: (§1) CD163 variant antibody binding to His-tagged recombinant human CD163 (R&D Systems, No. 1607-CD-050) protein was determined using ELISA. Recombinant protein was diluted in PBS to 5 μg/mL and added to 384-well high-binding ELISA plates (Greiner Bio-One, No. 781061) at 25 μL per well and incubated at 4° C. overnight. The plates were washed three times with PBS, using a BioTek ELx405 Select microplate washer (wash program ELISA_384_PBS_3×_wash) and then blocked with 90 μL/well of blocking buffer (2% nonfat, dry milk/PBS+0.05% Tween 20) for 1 hour at RT.
(§2) After blocking, 25 μL per well of primary antibodies were added to the plates and incubated for 1 hour at RT. The isotype control was a proprietary mAb, in human IgG1 frameworks, with known specificity. After primary antibody binding, plates were washed three times with PBS using the EL405× (wash program ELISA_384_PBS 3×_wash). The secondary antibody was a goat anti-human IgG F(ab′)₂ HRP (Jackson Immunoresearch, No. 109-035-097). Secondary antibody was diluted to 1:2500 in 2% nonfat, dry milk/PBS, and 25 μL per well was added to the wells and incubated at RT for 1 hour. The plates were washed four times with PBS, using the EL405× (wash program ELISA_384_PBS_4× wash). […] After development, the reaction was stopped by adding 25 μL per well of 0.3 M HCl and plates were read using a SpectraMax M5e instrument at 450 nm.

[4] = molecular target: T2, His-tagged recombinant human CD163 (R&D …); test: as above; remark: listed apart in the source
Procedure: as §1, §2

[5] = molecular target: T2, His-tagged recombinant human CD163 (R&D …); test: as above; remark: listed apart in the source
Procedure: as §1, §2

[6] = molecular target: T2, His-tagged recombinant human CD163 (R&D …); test: as above; remark: listed apart in the source
Procedure: as §1, §2

[7] = molecular target: T2, His-tagged recombinant human CD163 (R&D …); test: as above; remark: listed apart in the source
Procedure: as §1, §2

[8] = molecular target: T2, His-tagged recombinant human CD163 (R&D …); test: as above; remark: listed apart in the source
Procedure: as §1, §2

B1: AB101 parental antibody (antibody, human IgG1)
VH: EVQLVESGGGVVQPGRSLRLSCAASGFTFSSYAMHWVRQAPGKGLEWVAVISYDGSNKYYADSVKGRFTISRDNSKNTLYLQMNSLRAEDTAVYYCARENVRPYYDFWSGYYSEYYYYGMDVWGQGTTVTVSSASTKGPSVFPLAPSSKSTSGGTAALGCLVKDYF
VL: not shown
B1 showed a Kd [1] of 661 nM, a koff [1] of 0.0316 s⁻¹ and a kon [1] of 47800 M⁻¹ s⁻¹. It also gave a Kd [2] of 878 nM, a koff [2] of 0.0296 s⁻¹ and a kon [2] of 33700 M⁻¹ s⁻¹. For the same binder, the “EC50 (read off the curve)” value [3] was about 0.08 nM, the “EC50 (read off the curve)” value [4] was about 0.08 nM and the “EC50 (read off the curve)” value [5] was about 0.08 nM. The “EC50 (read off the curve)” value [6] was about 0.08 nM, the “EC50 (read off the curve)” value [7] was about 0.08 nM and the “EC50 (read off the curve)” value [8] was about 0.08 nM.

Like-named read-outs stand apart in the source and are kept apart here.
